{"source": "paper PMC6519732", "about": "(Journal of medicinal chemistry, 2019)", "key": {"[1]": {"system": "Ac-α-tubulin in HL60 cells", "assay": "Western blot of acetyl-α-tubulin in HL60 cells", "type": "cell-based", "settings": "4 h, normalized to DMSO"}, "[2]": {"system": "Ac-histone H3 in HL60 cells", "assay": "Western blot of acetyl-histone H3 in HL60 cells", "type": "cell-based", "settings": "4 h, normalized to DMSO"}, "MDA-MB-231 cells": {"system": "MDA-MB-231 cells", "settings": "MDA-MB-231, 48 h, compared with all tested HDAC inhibitors"}, "T24 cells": {"system": "T24 cells", "settings": "T24, 48 h, compared with all tested HDAC inhibitors"}, "human recombinant HDAC6": {"target": "T1, human recombinant HDAC6 (Homo sapiens, UniProt Q9UBN7)", "T1 sequence (Q9UBN7 1-1215)": "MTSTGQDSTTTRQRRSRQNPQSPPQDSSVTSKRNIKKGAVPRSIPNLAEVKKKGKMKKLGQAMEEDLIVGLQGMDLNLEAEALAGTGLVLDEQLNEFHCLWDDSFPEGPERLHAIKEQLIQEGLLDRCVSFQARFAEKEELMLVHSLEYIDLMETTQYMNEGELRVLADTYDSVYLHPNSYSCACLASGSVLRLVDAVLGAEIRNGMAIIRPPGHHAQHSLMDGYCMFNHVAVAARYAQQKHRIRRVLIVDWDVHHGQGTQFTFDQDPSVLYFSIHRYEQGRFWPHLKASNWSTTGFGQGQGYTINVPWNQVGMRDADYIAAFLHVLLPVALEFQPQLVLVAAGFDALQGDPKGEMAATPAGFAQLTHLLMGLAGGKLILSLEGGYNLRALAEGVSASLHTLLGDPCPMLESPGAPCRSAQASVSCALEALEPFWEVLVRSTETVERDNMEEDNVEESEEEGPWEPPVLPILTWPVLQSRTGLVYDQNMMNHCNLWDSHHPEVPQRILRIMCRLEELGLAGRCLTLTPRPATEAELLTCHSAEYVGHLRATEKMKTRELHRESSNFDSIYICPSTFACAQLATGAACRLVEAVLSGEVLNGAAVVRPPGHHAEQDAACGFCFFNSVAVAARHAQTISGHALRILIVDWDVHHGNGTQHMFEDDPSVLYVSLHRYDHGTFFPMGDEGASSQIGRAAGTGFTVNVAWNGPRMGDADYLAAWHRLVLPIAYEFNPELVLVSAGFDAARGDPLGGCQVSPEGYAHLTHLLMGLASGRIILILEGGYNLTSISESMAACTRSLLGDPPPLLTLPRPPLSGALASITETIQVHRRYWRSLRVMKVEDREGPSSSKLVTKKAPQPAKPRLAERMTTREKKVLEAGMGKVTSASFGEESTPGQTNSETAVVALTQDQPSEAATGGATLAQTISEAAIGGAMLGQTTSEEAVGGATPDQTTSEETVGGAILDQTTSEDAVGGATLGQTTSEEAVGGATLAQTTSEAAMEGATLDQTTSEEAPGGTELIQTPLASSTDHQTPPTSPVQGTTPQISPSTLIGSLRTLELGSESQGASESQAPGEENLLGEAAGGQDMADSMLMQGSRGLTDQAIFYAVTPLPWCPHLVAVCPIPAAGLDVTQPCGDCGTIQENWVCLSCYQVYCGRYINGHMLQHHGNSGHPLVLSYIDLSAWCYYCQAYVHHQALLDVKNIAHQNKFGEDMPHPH", "type": "biochemical", "settings": "from IC50 in place of Kd, T = 310 K"}}, "data": [{"compound": "O=C(CCCCCCC(=O)Nc1ccccc1)NO", "note": "[SAHA, suberoylanilide hydroxamic acid]", "values": [{"measurement": "Ac-tubulin/GAPDH", "setting": "[1]; 0.1 μM", "result": 3.79}, {"measurement": "Ac-tubulin/GAPDH", "setting": "[1]; 1 μM", "result": 9.97}, {"measurement": "Ac-tubulin/GAPDH", "setting": "[1]; 10 μM", "result": 9.52}, {"measurement": "Ac-H3/GAPDH", "setting": "[2]; 0.1 μM", "result": 1.52}, {"measurement": "Ac-H3/GAPDH", "setting": "[2]; 1 μM", "result": 1.91}, {"measurement": "Ac-H3/GAPDH", "setting": "[2]; 10 μM", "result": 2.80}, {"measurement": "apoptosis rate (in words)", "setting": "MDA-MB-231 cells", "result": "highest apoptosis rates"}, {"measurement": "apoptosis rate (in words)", "setting": "T24 cells", "result": "highest apoptosis rates"}]}, {"compound": "O=C(NO)c1ccc(CN2c3ccncc3Sc3ncccc32)cc1", "note": "[Compound 7n, 4-[(5H-Dipyrido[2,3-b:4’,3’-e][1,4]thiazin-5-yl)methyl]-N-hydroxybenzamide]", "values": [{"measurement": "LE, HDAC6 (ligand efficiency)", "setting": "human recombinant HDAC6", "result": "0.45 (kcal/mol)/non-H-Atom"}]}]}
